Assay results reported in ChEMBL document CHEMBL1156252, “Sigma-1 ligands: Tic-hydantoin as a key pharmacophore” (Eur J Med Chem, 2010).

The chains behind the UniProt entries cited, without tags or fusion partners.
UniProt Q99720, whole entry: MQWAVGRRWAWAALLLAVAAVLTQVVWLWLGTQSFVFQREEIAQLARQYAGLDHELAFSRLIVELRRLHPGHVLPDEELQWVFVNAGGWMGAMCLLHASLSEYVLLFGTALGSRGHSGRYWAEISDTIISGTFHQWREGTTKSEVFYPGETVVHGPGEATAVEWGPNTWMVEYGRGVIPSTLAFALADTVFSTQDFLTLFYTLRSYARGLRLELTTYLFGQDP

Molecular target: Sigma non-opioid intracellular receptor 1 (Homo sapiens, UniProt Q99720)
Test: Displacement of [3H](+)-pentazocine from sigma 1 opioid receptor in human Jurkat cells by scintillation counting
Format: cell-based

IC50 [nM] | Structure (SMILES)
1000 | CN(CCCN1C(=O)[C@H]2Cc3ccccc3CN2C1=O)Cc1ccccc1
650 | CN(CCCN1C(=O)[C@@H]2Cc3ccccc3CN2C1=O)Cc1ccccc1
